Here are results for two substances from ChEMBL document CHEMBL1124697, “A new family of water-soluble, third generation antitumor platinum complexes” (J Med Chem, 1989).

The data set is described as follows: Water solubility was determined. Format: ADME. As to conditions: buffer.

Turning to “Platinum:9,9-Dichloro-3-methyl-2,4-dioxa-8,10-diaza-spiro[5.5]undecane”, the Water solubility was determined as 0.1 mg/mL.

Substance “Platinum:9,9-Dichloro-2,4-dioxa-8,10-diaza-spiro[5.5]undecane” came in with a Water solubility of 0.5 mg/mL.
